Experimental data from PMC9851200, “Multiparameter phenotypic screening for endogenous TFEB and TFE3 translocation identifies novel chemical series modulating lysosome function” (Autophagy, 2022).

Sequences of proteins named here, by UniProt entry; tags and fusion partners are left off.
UniProt Q16539, whole entry: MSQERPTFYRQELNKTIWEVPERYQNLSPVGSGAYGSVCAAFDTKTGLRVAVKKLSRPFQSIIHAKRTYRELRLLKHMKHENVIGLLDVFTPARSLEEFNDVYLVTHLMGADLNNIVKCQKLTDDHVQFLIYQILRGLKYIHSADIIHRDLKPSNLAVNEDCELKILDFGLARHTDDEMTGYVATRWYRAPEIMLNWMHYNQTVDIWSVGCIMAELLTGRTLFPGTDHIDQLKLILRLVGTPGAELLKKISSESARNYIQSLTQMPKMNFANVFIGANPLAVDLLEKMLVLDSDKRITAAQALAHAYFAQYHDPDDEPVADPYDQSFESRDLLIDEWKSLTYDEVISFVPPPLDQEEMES

Legend:
[1] = target: T1, PRKD3 (Homo sapiens, UniProt O94806); conditions: read-out: IC50 PRKD3; cited from earlier work
T1 sequence (O94806 1-890): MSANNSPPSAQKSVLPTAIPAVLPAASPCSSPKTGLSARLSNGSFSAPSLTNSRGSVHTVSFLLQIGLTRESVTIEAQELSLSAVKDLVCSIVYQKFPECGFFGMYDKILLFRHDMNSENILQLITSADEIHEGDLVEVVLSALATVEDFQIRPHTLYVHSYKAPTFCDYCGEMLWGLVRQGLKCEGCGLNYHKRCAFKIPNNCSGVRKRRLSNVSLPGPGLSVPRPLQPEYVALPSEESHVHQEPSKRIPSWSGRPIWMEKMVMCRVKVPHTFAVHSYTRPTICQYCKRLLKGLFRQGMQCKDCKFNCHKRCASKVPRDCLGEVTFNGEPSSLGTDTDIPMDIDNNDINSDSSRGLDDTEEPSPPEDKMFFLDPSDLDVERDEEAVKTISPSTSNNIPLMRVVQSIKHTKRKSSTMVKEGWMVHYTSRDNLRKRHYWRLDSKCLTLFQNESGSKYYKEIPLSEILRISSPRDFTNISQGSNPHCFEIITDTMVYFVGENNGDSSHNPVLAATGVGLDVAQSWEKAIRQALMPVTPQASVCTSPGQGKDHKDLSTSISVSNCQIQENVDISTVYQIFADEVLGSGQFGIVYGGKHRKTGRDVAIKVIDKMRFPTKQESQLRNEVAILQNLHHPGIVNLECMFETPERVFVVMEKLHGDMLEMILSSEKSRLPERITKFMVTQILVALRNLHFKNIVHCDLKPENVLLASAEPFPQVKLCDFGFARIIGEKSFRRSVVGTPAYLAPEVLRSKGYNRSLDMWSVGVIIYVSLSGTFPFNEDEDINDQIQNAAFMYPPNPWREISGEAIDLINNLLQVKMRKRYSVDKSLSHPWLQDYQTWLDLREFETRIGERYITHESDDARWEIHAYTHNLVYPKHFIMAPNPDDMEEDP

[2] = target: cellular kinases of SH-SY5Y cells (Homo sapiens, UniProt Q16539); assay: biochemical; conditions: read-out: KiNativ in-cell binding, % Inhibition, MAPK14/p38a
[3] = target: T2, ACVR1B (Homo sapiens, UniProt P36896); assay: KINOMEscan ACVR1B; format: binding
T2 sequence (P36896 24-505): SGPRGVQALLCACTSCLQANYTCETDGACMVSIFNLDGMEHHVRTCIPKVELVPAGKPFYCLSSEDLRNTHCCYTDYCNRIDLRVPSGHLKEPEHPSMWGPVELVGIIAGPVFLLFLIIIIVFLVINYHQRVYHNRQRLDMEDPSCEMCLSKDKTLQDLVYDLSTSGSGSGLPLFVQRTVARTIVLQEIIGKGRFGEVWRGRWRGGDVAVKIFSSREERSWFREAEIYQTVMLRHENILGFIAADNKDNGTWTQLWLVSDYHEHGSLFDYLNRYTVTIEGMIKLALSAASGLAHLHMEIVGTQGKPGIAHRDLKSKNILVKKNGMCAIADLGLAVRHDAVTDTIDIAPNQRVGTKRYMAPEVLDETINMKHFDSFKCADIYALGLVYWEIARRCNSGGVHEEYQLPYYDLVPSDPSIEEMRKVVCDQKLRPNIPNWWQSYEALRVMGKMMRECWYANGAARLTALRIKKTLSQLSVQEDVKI

CC[C@@H](N)CNc1ccnc(-c2cc(-c3cnn(C)c3)ccc2O)n1 [CRT0066101]
IC50 [1]: 2 nM

Cc1cccc(-c2nc(Nc3ccc4ncsc4c3)c3ccccc3n2)n1 [NK140]
inhibition at 2 µM [2]: 17.7%

Cc1cccc(-c2nc(Nc3ccc4ncoc4c3)c3ccccc3n2)n1 [NK176]
KINOMEscan ACVR1B [3]: 58
